Measurements: US20260226036A1, “THIOUREA ANTIO[…] NEURO[…]” (priority 2023, published 2026)

Tests used:
SH-SY5Y cells = test: Mitochondrial bioenergetics, Seahorse XFe24 (OCR, ECAR); type: cell-based, human; conditions: vs untreated control; 24 h; 1, 10, 100 μM tested
Experimental: In a separate experiment, 60,000 cells/well of SH-SY5Y cells were seeded in a 24 well plate and treated for 24 h with SA-31 (1 μM, 10 μM, and 100 μM). After 24 h, the mitochondrial complex inhibitors and uncoupling reagents (oligomycin, FCCP, rotenone/antimycin A) were added and the plate was analyzed for changes in oxygen consumption rate (OCR) and extracellular acidification rate (ECAR) using the Seahorse XFe24 analyzer following the manufacturer's instructions.

[1] = test system: mouse hippocampal neural HT22 cells; test: Neuroprotection MTT assay in HT22 cells; type: cell-based; conditions: FIG. 5A, N=3
Experimental: (§1) Neuroprotection activities: Either mouse hippocampal neural HT22 cells or human neuroblastoma SHSY5Y cells were cultured, seeded in 96-well plates and treated with either TBHP or cocaine or METH followed by addition of SA-30 or SA-31 at different concentrations and incubated for 24 h. MTT assay was used for measuring viable cells at absorbance of 490 nm. […] The result was compared with two known anti-oxidant compounds dimethyl thiourea (DMTU) and 4-hydoxy tempol (4-H-tempol). […] (FIGS. 5C-5D).

[2] = test system: human neuroblastoma SHSY5Y cells; test: Neuroprotection MTT assay in SHSY5Y cells; type: cell-based; conditions: for number of viable cells compared to either DMTU or 4-H-tempol: 24 h; for protection from TBHP, cocaine and methamphetamine induced oxidative stress and cell death: SHSY5Y cells, FIGS. 5B-5C, N=3
Experimental: as §1

catalase (CAT) = test: Catalase ELISA in SH-SY5Y cells; type: cell-based, human; conditions: cocaine 1.5 mM + SA-31 co treatment; 24 hours
Experimental: (§2) Cells were treated with either cocaine (1.5 mM) or METH (3.35 mM) followed by co-treatment with SA-31 for 24 hours. Cell lysates were collected and quantified with Pierce™ BCA Protein Assay. Level of intracellular SOD, catalase, glutathione peroxidase and total antioxidant concentration were assessed using ELISA kits.

[3] = Brain bioavailability after single intraperitoneal injection, HPLC/LC/MS; type: in vivo, mouse
Experimental: The bioavailability of compound SA-31 was evaluated in adult, aged mouse (8 months old) and quantified the concentration of drug at different time points after single intraperitoneal injection. The goal was to understand whether the compound has ability to cross blood brain barrier and reach to the different region of the brain tissue systemically. Total 16 mice were used for this experiment. A single dose of SA-31 formulated in PBS was dosed intraperitoneally (10 mg/kg) to the C57Bl/6 J mice (n=4 per group, 8 months old, M+F) and were sacrificed at four different time points (0.5 h, 1 h, 4 h, and 8 h). The brain was dissected into 6 different regions (cortex, midbrain, hippocampus, cerebellum, striatum and hindbrain) and the samples were stored at −80° C. for further processing and HPLC analysis. An HPLC/LC/MS method was developed in house to quantify the concentration of SA-31 in the plasma and brain samples using Waters Atlantis HILIC Silica 3 μm, 3.0×50 mm in Agilent 1260 infinity HPLC coupled with 6460 triple Quad LC/MS. Water containing 0.1% formic acid was used as mobile phase A and acetonitrile containing 0.1% formic acid was used as mobile phase B to detect the compound and internal standard. The tissue samples were extracted, concentrated using SpeedVac and reconstituted with 50:50 isopropyl and water. The samples were filtered through 0.45-micron syringe filter and 50 μL of the sample was injected in the HLPC machine. Method validation was performed with ten serially diluted concentrations of SA-31 to generate a standard curve with >100% accuracy. The lower quantification detection range was set to be 1 ng/ml

SOD = test: Intracellular SOD ELISA in SH-SY5Y cells; type: cell-based, human; conditions: 24 h
Experimental: as §2

SW mice = test: Cocaine-conditioned locomotion, expression test; type: in vivo, mouse; conditions: for expression of increased (cocaine-conditioned) locomotor activity: Paired mice, cocaine 15 mg/kg 24 h earlier
Experimental: SA-31 blocks cocaine-conditioned locomotion. The goal of this pilot study was to determine if the novel small molecule was effective in preventing cocaine-conditioned motor activity of SW mice. […] Cocaine results in enhanced locomotor activity in mice. Mice that were previously injected with 15 mg/kg cocaine, either in their home cages (Unpaired) or in the novel test environment (Paired), were tested 24 h later. Mice were either administered vehicle [Unpaired-vehicle or Paired-vehicle] or dimethyl thiourea (DMTU), a known hydroxyl radical scavenger or compound SA-31 prior to testing [Paired-1 mg/kg, 3 mg/kg, 5 mg/kg or 10 mg/kg]. […] It is yet to be determined if a high dose of SA-31 has leea to inactivation of MS in vivo by pharmacokinetic studies.

IL-1β cytokine = IL-1β cytokine ELISA of SHSY-5Y supernatants; type: cell-based, human
Experimental: Briefly, SHSY-5Y cells were cultured, seeded in 96-well plates, and treated with either cocaine (1.5 mM) or MEH (3.5 mM) subsequently followed by co-treatment with SA-31 at different concentrations (10 μM, 100 μM), and incubated for 24 h. Supernatants were collected and the IL-1β cytokine concentration was assessed using ELISA kit and following manufacturer instruction (RayBiotech). […] N=3, p<0.05; p<0.01, One-way ANOVA, GraphPad Prism.

SH-SY5Y neural cells = test: Total antioxidant concentration in SH-SY5Y cells; type: cell-based, human; conditions: FIG. 7E
Experimental: as §2

[4] = test system: glutathione peroxidase (GPx); test: Glutathione peroxidase ELISA in SH-SY5Y cells; type: cell-based, human; conditions: cocaine 1.5 mM + SA-31 co treatment; 24 hours
Experimental: as §2

methionine synthase (MS) = test: Intracellular methionine synthase ELISA of SH-SY5Y cell lysate; type: cell-based, human; conditions: for MS activity compared to TBHP treated cells: TBHP 65 μM, compound 100 μM, FIG. 6A
Experimental: Cells were treated with either TBHP (65 μM), cocaine (1.5 mM) or METH (3.35 mM) followed by co-treatment with SA-30 and SA-31 (100 μM) for 24 hours. Cell lysates were collected and quantified with Pierce™ BCA Protein Assay. Level of intracellular methionine synthase (MS) were assessed using ELISA of the cell lysate.

[5] = cocaine induced cell death model

## CC1(C)CC(NC(=S)NC2CCS(=O)(=O)CC2)CC(C)(C)N1[O] [SA-31, 1-(1,1-dioxidotetrahydro-2H-thiopyran-4-yl)-3-(2,2,6,6-tetramethyl-1-(11-oxidaneyl)piperidin-4-yl)thiourea]
SH-SY5Y cells
  glycolytic activity: increases
  mitochondrial respiration: increases
[1]
  protection from TBHP, cocaine and methamphetamine induced oxidative stress and cell death: protects neural cells
[2]; METH induced cell death model
  number of viable cells compared to either DMTU or 4-H-tempol: increased the number of viable cells
[2]
  protection from TBHP, cocaine and methamphetamine induced oxidative stress and cell death: protects neural cells
[2]; [5]
  number of viable cells compared to either DMTU or 4-H-tempol: increased the number of viable cells
Catalase (CAT)
  CAT activity: significantly increased
[3]; 10 mg/kg intraperitoneal, FIG. 10A
  time of peak concentration, cortex: 8 h
[3]; 10 mg/kg intraperitoneal, FIG. 10B
  time of peak concentration, midbrain: 8 h
[3]; 10 mg/kg intraperitoneal, FIG. 10C
  time of peak concentration, hippocampus: 8 h
[3]; 10 mg/kg intraperitoneal, FIG. 10D
  time of peak concentration, cerebellum: 30 min
[3]; 10 mg/kg intraperitoneal, FIG. 10E
  time of peak concentration, striatum: 4 h
[3]; 10 mg/kg intraperitoneal, FIG. 10F
  time of peak concentration, hindbrain: 1 h
[3]; after systemic dosing
  bioavailability in mouse brain: bioavailable
SOD; METH 3.35 mM + SA-31 100 μM
  SOD activity vs METH treated cells: significant increase; also recorded: increased
SOD; cocaine 1.5 mM + SA-31 100 μM
  SOD activity vs cocaine treated cells: significant increase; also recorded: increased
SW mice; 1 mg/kg prior to testing
  expression of increased (cocaine-conditioned) locomotor activity: significantly inhibited
SW mice; 3 mg/kg prior to testing
  expression of increased (cocaine-conditioned) locomotor activity: significantly inhibited
SW mice; cocaine-conditioned locomotion, effective doses compared
  potency relative to DMTU: more potent than DMTU
IL-1β cytokine; METH 3.5 mM + SA-31, 24 h
  IL-1β: trend in decrease
IL-1β cytokine; cocaine 1.5 mM + SA-31 (10 M as printed), 24 h
  cocaine induced increase in IL-1β: significantly decreased
IL-1β cytokine; human SH-SY5Y neural cells, FIGS. 8A-B
  inflammatory cytokine IL-1β: decreases
SH-SY5Y neural cells; SA-31 in combination with cocaine
  overall antioxidant concentration: increased
SH-SY5Y neural cells; only SA-31
  overall antioxidant concentration: increased
[4]
  GPx activity: significantly retrieved; also recorded: significantly increased; also recorded: No significant changes
Methionine synthase (MS); METH 3.35 mM + 100 μM, 24 hours, FIG. 6C
  intracellular MS activity vs METH treated cells: significant increase
Methionine synthase (MS); 24 hours
  MS activity compared to TBHP treated cells: significant increase
Methionine synthase (MS); TBHP experiment, 1000 μM
  MS enzyme: significant increase
Methionine synthase (MS); cocaine 1.5 mM + SA-31 100 μM, 24 hours, FIG. 6B
  effect on MS: no significant effect

## CC1(C)CC(NC(=S)NC2CCSCC2)CC(C)(C)N1[O] [SA-30, 1-(tetrahydro-2H-thiopyran-4-yl)-3-(2,2,6,6-tetramethyl-1-(11-oxidaneyl)piperidin-4-yl)thiourea]
[1]
  protection from TBHP, cocaine and methamphetamine induced oxidative stress and cell death: protects neural cells
[2]; METH induced cell death model
  number of viable cells compared to either DMTU or 4-H-tempol: increased the number of viable cells
[2]
  protection from TBHP, cocaine and methamphetamine induced oxidative stress and cell death: protects neural cells
[2]; [5]
  number of viable cells compared to either DMTU or 4-H-tempol: increased the number of viable cells
Methionine synthase (MS); 24 hours
  MS activity compared to TBHP treated cells: significant increase

Entries after “also recorded” stand apart in the source; their conditions may differ.
